Apparent affinities of Ab-14 variants for a coronavirus HR2 peptide

Source: Engelhart et al. 2022 (doi:10.1038/s41597-022-01779-4), MIT Lincoln Laboratory and A-Alpha Bio; data file from the FLAb repository.

Antigen: PDVDLGDISGINAS, a 14-residue peptide of the SARS-CoV-2 spike HR2 region.

Parent scFv Ab-14: VH joined to VL by three GGGGS repeats. Changes lie in the heavy chain CDRs alone.
VH: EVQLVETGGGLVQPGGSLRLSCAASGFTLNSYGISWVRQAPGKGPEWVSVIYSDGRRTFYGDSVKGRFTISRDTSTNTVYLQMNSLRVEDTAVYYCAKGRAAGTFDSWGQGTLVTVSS
VL: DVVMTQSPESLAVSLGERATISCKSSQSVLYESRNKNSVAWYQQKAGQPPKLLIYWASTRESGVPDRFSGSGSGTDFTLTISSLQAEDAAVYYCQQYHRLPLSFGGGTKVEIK

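Phage display of a naive human antibody library on the peptide gave the parent. Library AAYL49 holds single substitutions and randomly drawn double and triple substitutions in the CDRs. AlphaSeq pools MATa yeast showing the antibodies with MATalpha yeast showing the peptide. Binding brings cells together so that they mate, and sequencing counts the barcode pairs among the diploids. Read counts were normalised to the haploid input and turned into Kd by a linear fit to BCL2-family pairs of known affinity, for each replicate. Each pool was mated in three replicate cultures.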

Each variant is given by its three heavy chain CDRs, as the data file delimits them; those of the parent are GFTLNSYGIS, VIYSDGRRTFYGDSVK, GRAAGTFDS. Every variant below is changed at Y60 of the VH (sequential numbering). Each Kd is an estimate from the mating assay, the geometric mean of the replicates in which the pair was seen; lower is stronger. "nd" means that the variant was in the library but no mating with the target was seen in any replicate; the authors take this as a sign of poor binding, and no number exists. Nonspecific signal, from three strains lacking the peptide, appeared in 15% of pairings of library AAYL49, centred on 11 µM (5% of these signals below 680 nM); values are not corrected for it. Also given: how often the same scFv was detected with the empty control strains. For reference, the parent read 4.4 nM as the reference entry and 13 µM (one replicate of three) as a member of this library.

| CDR-H1 | CDR-H2 | CDR-H3 | Kd (apparent) | seen in | empty controls |
|---|---|---|---|---|---|
| GFTLNSYGIS | VIYSDGRRTFGGDSVK | GRAAGTFDS | 2.2 µM | 1 of 3 | 0 of 9 |
| GFTLNSTIIS | VIYSDGRRTFAGDSVK | GRAAGTFDS | 24 µM | 2 of 3 | 1 of 9 |
| GFILNSYGIS | VIGSDGRRTFVGDSVK | GRAAGTFDS | nd | 0 of 3 | 0 of 9 |
| GFTLNSYGIS | VIYSDGRRTFIGRSVK | GRARGTFDS | nd | 0 of 3 | 2 of 9 |
| TFTLNSYGIS | VIYSDGRRTFFGDSVK | GRAAGTFDI | nd | 0 of 3 | 0 of 9 |
| GFTLNSYGIS | VIYSDWRRTFGGDSVK | GRLAGTFDS | nd | 0 of 3 | 4 of 9 |
| GFTLNSYGIS | VIYSDGRRTFAGDSVI | GCAAGTFDS | nd | 0 of 3 | 0 of 9 |
| GFTLNSYGDS | VIYSDGRRTFNGTSVK | GRAAGTFDS | 9.6 µM | 1 of 3 | 0 of 9 |
| GFTLNSYGIS | VIYSDGRRTFCGDSVK | GRTAGTIDS | nd | 0 of 3 | 0 of 9 |
| GFTLNSYGIS | VINSDGRRTFEGDIVK | GRAAGTFDS | 2.6 µM | 1 of 3 | 2 of 9 |
| GFTLNSYGIS | VIYSDGRRTFCGDSHK | KRAAGTFDS | 1.5 mM | 2 of 3 | 5 of 9 |
| GFTLNSYGIS | FRYSDGRRTFLGDSVK | GRAAGTFDS | nd | 0 of 3 | 1 of 9 |
| GPTLNSYGIS | VIYSDGRVTFQGDSVK | GRAAGTFDS | 1.9 µM | 1 of 3 | 0 of 9 |
| GFTLNSYGIS | VIYSDGRRTFNIDSVK | GRAAGTKDS | nd | 0 of 3 | 0 of 9 |
| GFHLNSYGIS | VIYSDGRRTDIGDSVK | GRAAGTFDS | nd | 0 of 3 | 1 of 9 |
| GFTLNSYGIS | VTYSDARRTFHGDSVK | GRAAGTFDS | 15 µM | 3 of 3 | 0 of 9 |
| GFTLNSYGIS | VIYSDGRRTAEGDSVK | GHAAGTFDS | 160 nM | 2 of 3 | 0 of 9 |
| GFQLNSYGIS | VIYSDGRRTFFEDSVK | GRAAGTFDS | 110 nM | 3 of 3 | 4 of 9 |
| GFTLNSYGIS | VIYSDWRRTFDGDSVK | GRAAGTFDS | nd | 0 of 3 | 1 of 9 |
| GFTLNSYGIS | VFYSDGRRTFTGDSVK | GRAAGTFDS | 8.8 µM | 2 of 3 | 3 of 9 |
| GFTLNSYGIS | VIKSDGRRTFHGDSVK | GRAPGTFDS | nd | 0 of 3 | 1 of 9 |
| GFTLPSYGIS | VIYSDGRRTFFGDSVK | GRNAGTFDS | 590 nM | 3 of 3 | 1 of 9 |
| NFTLNSYGIS | VIYSDGRRTHAGDSVK | GRAAGTFDS | 7.4 µM | 3 of 3 | 2 of 9 |
| GFTLNSYSIS | VIYSDGRKTFKGDSVK | GRAAGTFDS | 37 µM | 2 of 3 | 2 of 9 |
| GFTLISYGIS | VMYSDGRRTFAGDSVK | GRAAGTFDS | 30 µM | 1 of 3 | 2 of 9 |
| GFTLNSYGIS | VIYSDGRRTFNGDSVK | GRAAGTFDS | 4.9 µM | 1 of 3 | 1 of 9 |
| GMTLNSYNIS | VIYSDGRRTFDGDSVK | GRAAGTFDS | nd | 0 of 3 | 2 of 9 |
| GFTLNSYGIS | VIYSDGIRCFRGDSVK | GRAAGTFDS | 33 µM | 1 of 3 | 1 of 9 |
| GFTLNSYGIE | VIYSDGRRTFEGDSVK | GRAAGTFDS | nd | 0 of 3 | 0 of 9 |
| GFKLNSYGIS | WIYSDGRRTFQGDSVK | GRAAGTFDS | nd | 0 of 3 | 2 of 9 |
| GFTLNSYGIS | VIYSDGRRTFIGDSWK | GRAAGTFDI | 20 µM | 2 of 3 | 1 of 9 |
| GFTLNSYGIS | VIYSDGRRTFQGDSLK | GRAAGTFDS | 13 µM | 1 of 3 | 1 of 9 |
| GFTLNSYGRS | VIYSDGRRTFDGDSVK | GRAAGVFDS | nd | 0 of 3 | 2 of 9 |
| GFDLNSYGIS | VIYSDGRKTFSGDSVK | GRAAGTFDS | 1.2 µM | 3 of 3 | 3 of 9 |
| GFTLNSYGIS | VIYSDGRRTFWGDSTK | GRANGTFDS | nd | 0 of 3 | 1 of 9 |
| GFTLNSYGIS | VIYSDVRRTFFGDSVK | GRAAGTFCS | 3.9 µM | 2 of 3 | 1 of 9 |
| GFTLNSYGIS | VIYSDGRRTFKGDSVY | GRAAGTFDS | nd | 0 of 3 | 0 of 9 |
| GFTTNSYGIS | VIYSDGRRKFKGDSVK | GRAAGTFDS | nd | 0 of 3 | 0 of 9 |
| GFTLNSYGRS | VIYSDGRRTFKGDSVK | GRAAGTFFS | 9.4 µM | 1 of 3 | 1 of 9 |
| GPTLNSYGIS | VIYLDGRRTFNGDSVK | GRAAGTFDS | nd | 0 of 3 | 1 of 9 |
| GATLNSYGIS | VIYSDGRRTMQGDSVK | GRAAGTFDS | nd | 0 of 3 | 1 of 9 |
| GFTLNSCGIS | VIYSDGRRTFFGDSVK | GRAAGTFDA | 4.5 µM | 2 of 3 | 2 of 9 |
| GFTLNSYGIS | VIYSDGRRTFIKDSVK | GEAAGTFDS | 4.1 nM | 3 of 3 | 1 of 9 |
| GFTLNSYGIS | VIYSDGRRTFNGDSVK | GRAIGTFDS | 49 µM | 1 of 3 | 1 of 9 |
| GFTLNSYGIS | VIYSDGRRTFGGDSVK | MRAHGTFDS | 65 µM | 2 of 3 | 3 of 9 |
| GFTLNSYGAS | VIYSDGRRTADGDSVK | GRAAGTFDS | 98 µM | 1 of 3 | 2 of 9 |
| GFTLNSYGIS | VIYSQGRRTFMGDSVK | GRAAGTFDP | nd | 0 of 3 | 1 of 9 |
| GFTLNSYGIS | VIYSDGRRTFLGDSVK | GRAAHMFDS | nd | 0 of 3 | 0 of 9 |
| GFTLNSYGIS | VIYSDGRRTFKGDSVK | GHANGTFDS | nd | 0 of 3 | 0 of 9 |
| GFTLNSYGIS | VIYFDGRRTFEGDSVK | GRRAGTFDS | nd | 0 of 3 | 0 of 9 |
| GFTLNSYGIS | VIYSDGRRTFILDSVR | GRAAGTFDS | 5.7 µM | 3 of 3 | 0 of 9 |
| GFTLNSYGIS | VIYSDGRRTFFGDSVK | GRAAGTEDN | nd | 0 of 3 | 1 of 9 |
| GFTLNSYGIS | VIYSDVWRTFTGDSVK | GRAAGTFDS | nd | 0 of 3 | 1 of 9 |
| GFTLNSYGIS | VIYSDQMRTFPGDSVK | GRAAGTFDS | nd | 0 of 3 | 0 of 9 |
| GFNLNSYGIS | VIYSDGRRTFRGDSVK | GRAAGEFDS | nd | 0 of 3 | 0 of 9 |
| GFTKNNYGIS | VIYSDGRRTFQGDSVK | GRAAGTFDS | 20 µM | 2 of 3 | 3 of 9 |
| GFTLNSYGIS | KIYSDPRRTFNGDSVK | GRAAGTFDS | nd | 0 of 3 | 0 of 9 |
| GFTLNSYGIS | VIYSDMRREFSGDSVK | GRAAGTFDS | nd | 0 of 3 | 0 of 9 |
| WFTLNSYGIS | VIYSDGRRTFNGDSVK | GRAAGTADS | nd | 0 of 3 | 0 of 9 |
| GFTLNSYGIK | VIYSDGRRTFCGDSVK | GRAADTFDS | nd | 0 of 3 | 0 of 9 |
| GFTLNSYGIS | VDYSDGRRTFLGDSVK | GRAASTFDS | 170 µM | 1 of 3 | 2 of 9 |
| GFTLNSYGIS | VIYSDGRRFFFGDSVW | GRAAGTFDS | nd | 0 of 3 | 0 of 9 |
| GFTLNSYGIS | GIYSDGRRTFRGDSTK | GRAAGTFDS | 14 µM | 1 of 3 | 4 of 9 |
| GFALNSYGIS | VIYSDGRRTFAGDSVK | TRAAGTFDS | 2.5 µM | 1 of 3 | 0 of 9 |

The opening 8 entries, copied out:

{"CDR-H1": "GFTLNSYGIS", "CDR-H2": "VIYSDGRRTFGGDSVK", "CDR-H3": "GRAAGTFDS", "Kd (apparent)": "2.2 µM", "seen in": "1 of 3", "empty controls": "0 of 9"}
{"CDR-H1": "GFTLNSTIIS", "CDR-H2": "VIYSDGRRTFAGDSVK", "CDR-H3": "GRAAGTFDS", "Kd (apparent)": "24 µM", "seen in": "2 of 3", "empty controls": "1 of 9"}
{"CDR-H1": "GFILNSYGIS", "CDR-H2": "VIGSDGRRTFVGDSVK", "CDR-H3": "GRAAGTFDS", "Kd (apparent)": "nd", "seen in": "0 of 3", "empty controls": "0 of 9"}
{"CDR-H1": "GFTLNSYGIS", "CDR-H2": "VIYSDGRRTFIGRSVK", "CDR-H3": "GRARGTFDS", "Kd (apparent)": "nd", "seen in": "0 of 3", "empty controls": "2 of 9"}
{"CDR-H1": "TFTLNSYGIS", "CDR-H2": "VIYSDGRRTFFGDSVK", "CDR-H3": "GRAAGTFDI", "Kd (apparent)": "nd", "seen in": "0 of 3", "empty controls": "0 of 9"}
{"CDR-H1": "GFTLNSYGIS", "CDR-H2": "VIYSDWRRTFGGDSVK", "CDR-H3": "GRLAGTFDS", "Kd (apparent)": "nd", "seen in": "0 of 3", "empty controls": "4 of 9"}
{"CDR-H1": "GFTLNSYGIS", "CDR-H2": "VIYSDGRRTFAGDSVI", "CDR-H3": "GCAAGTFDS", "Kd (apparent)": "nd", "seen in": "0 of 3", "empty controls": "0 of 9"}
{"CDR-H1": "GFTLNSYGDS", "CDR-H2": "VIYSDGRRTFNGTSVK", "CDR-H3": "GRAAGTFDS", "Kd (apparent)": "9.6 µM", "seen in": "1 of 3", "empty controls": "0 of 9"}